Measurements from PubChem BioAssay AID1417 (Emory University Molecular Libraries Screening Center, 2008).

Chains of the proteins cited; added tags and fusions are not shown.
UniProt Q07820, whole entry, looked up: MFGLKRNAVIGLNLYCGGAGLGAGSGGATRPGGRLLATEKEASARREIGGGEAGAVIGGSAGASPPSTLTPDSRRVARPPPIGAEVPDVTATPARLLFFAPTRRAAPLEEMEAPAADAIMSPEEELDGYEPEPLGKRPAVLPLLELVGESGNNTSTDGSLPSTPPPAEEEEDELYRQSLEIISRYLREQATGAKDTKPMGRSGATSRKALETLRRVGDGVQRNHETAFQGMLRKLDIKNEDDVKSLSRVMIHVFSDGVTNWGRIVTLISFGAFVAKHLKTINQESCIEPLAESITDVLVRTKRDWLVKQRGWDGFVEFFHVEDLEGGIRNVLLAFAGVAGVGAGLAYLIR

Target: Induced myeloid leukemia cell differentiation protein Mcl-1 (Homo sapiens) (UniProt Q07820)
Experiment: Mcl-1 Noxa peptide disruption concentration-response – biochemical, TR-FRET, dose response (AID 1417)
Conditions: Mcl-1/Noxa peptide interaction, cell-free TR-FRET (terbium/rhodamine), 2 h; measured here: absolute IC50

Compound: CC1(C)N([O-])c2cc([N+](=O)[O-])ccc2[N+]1=O
- IC50: > 54 µM
